# Assay results from publication PMC3898987 (Bioorganic & Medicinal Chemistry, 2013).
# By UniProt entry, the sequences of proteins in these tests, tags left out. Residues count along the entry.
# UniProt P46098, 24-478 Y68A: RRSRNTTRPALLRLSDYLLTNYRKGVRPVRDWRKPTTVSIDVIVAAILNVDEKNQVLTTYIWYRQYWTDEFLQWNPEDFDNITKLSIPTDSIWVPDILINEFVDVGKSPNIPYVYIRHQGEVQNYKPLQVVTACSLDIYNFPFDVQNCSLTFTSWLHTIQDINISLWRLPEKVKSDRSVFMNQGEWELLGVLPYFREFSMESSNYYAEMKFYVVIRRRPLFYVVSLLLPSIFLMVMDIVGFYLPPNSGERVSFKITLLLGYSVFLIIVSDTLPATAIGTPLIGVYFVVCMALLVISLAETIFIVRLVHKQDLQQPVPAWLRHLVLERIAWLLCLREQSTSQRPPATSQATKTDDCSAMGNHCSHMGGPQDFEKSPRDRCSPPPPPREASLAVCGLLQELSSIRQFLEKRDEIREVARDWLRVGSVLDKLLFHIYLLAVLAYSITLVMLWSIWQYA
# Target: 5-HT3A receptor Y73A (Homo sapiens, UniProt P46098, Y68A)
# Test: FlexStation membrane potential dye functional assay, HEK293 cells
# Format: cell-based
# Design: expressed in transfected cells; host or cells: HEK293
# Conditions: palonosetron inhibition, 5-HT3A Y73A vs WT 5-HT3A
smiles,measurement,value
O=C1c2cccc3c2[C@H](CCC3)CN1[C@@H]1CN2CCC1CC2 [Palonosetron],increase in IC50 compared to wild type receptors,~15 fold
